The target of this assay is Microphthalmia-associated transcription factor (Homo sapiens) (UniProt O75030). As to the kind of experiment: MITF inhibitors by FRET titration, dose response, biochemical, high throughput (AID 1259375).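 Further: FRET between CFP-tagged and YFP-tagged MITF protein partners.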 The conditions noted are these: FRET biochemical assay, MITF inhibition.

Protein sequences, listed by entry. Tags and fused reporters are not part of them. Lines headed by an entry give the natural chain unless they say otherwise; changes in a name come on top.
UniProt O75030: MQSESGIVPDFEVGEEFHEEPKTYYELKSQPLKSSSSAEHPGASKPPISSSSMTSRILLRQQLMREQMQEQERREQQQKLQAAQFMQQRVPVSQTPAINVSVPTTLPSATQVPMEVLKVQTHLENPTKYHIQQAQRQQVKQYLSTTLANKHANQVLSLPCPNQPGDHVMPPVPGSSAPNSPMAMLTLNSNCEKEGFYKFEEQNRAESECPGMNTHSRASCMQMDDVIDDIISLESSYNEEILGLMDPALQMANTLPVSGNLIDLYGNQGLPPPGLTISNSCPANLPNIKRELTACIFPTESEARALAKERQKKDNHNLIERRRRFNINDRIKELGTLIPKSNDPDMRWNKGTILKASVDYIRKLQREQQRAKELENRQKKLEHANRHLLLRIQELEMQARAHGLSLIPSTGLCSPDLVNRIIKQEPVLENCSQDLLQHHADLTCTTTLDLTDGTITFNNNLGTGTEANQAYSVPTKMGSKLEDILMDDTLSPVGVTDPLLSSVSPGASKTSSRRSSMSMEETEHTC

Activity calls are given as the source filed them. How the calls were made is not given here.

The IC50 is the concentration needed to halve the response being measured. Take `CC(C)OP(=O)(OC(C)C)C(=O)c1ccco1`: the IC50 was inactive: > 7.35 µM.

(Values after PubChem BioAssay AID1259375 (The Scripps Research Institute Molecular Screening Center, 2018).)
